Experimental data: PubChem BioAssay (NCI)
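A five-concentration, 48-hour dose response in 96-well plates underlies each endpoint, interpolated linearly between surrounding concentrations. Abbreviation: GI50, concentration required for 50% inhibition of growth. At the TGI there is no net growth.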

System: MDA-MB-468 breast
Experiment: DTP human tumour cell line panel, 48 h

CN(CCCl)CCCl
GI50: 0.363 µM
TGI: 1.96 µM
